{"sequences": {"note": "By UniProt entry, the sequences of proteins in these tests, tags left out. Where a name states a change or a piece, a line headed by the entry shows the natural chain unless it says otherwise.", "UniProt Q9GZU7": "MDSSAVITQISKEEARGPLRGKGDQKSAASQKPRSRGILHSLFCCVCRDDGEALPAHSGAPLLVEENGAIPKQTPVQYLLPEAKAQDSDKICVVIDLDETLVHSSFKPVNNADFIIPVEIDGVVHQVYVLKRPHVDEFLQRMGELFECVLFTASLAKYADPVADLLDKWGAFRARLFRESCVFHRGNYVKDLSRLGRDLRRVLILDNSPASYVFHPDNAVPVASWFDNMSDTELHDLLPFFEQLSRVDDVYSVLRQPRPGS"}, "source": "PubChem BioAssay AID540281", "about": "(Sanford-Burnham Center for Chemical Genomics, 2011)", "note": "This is a selection; strong and weak results do not stand in their true shares. Activity calls are given as the source filed them.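 The calls were made as follows: active = inhibition of at least 30% at 20 µM; inactive = the rest.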", "data": [{"molecular_target": "Carboxy-terminal domain RNA polymerase II polypeptide A small phosphatase 1 (Homo sapiens) (UniProt Q9GZU7)", "test": "Scp-1 phosphatase inhibitors, retest, confirmation, biochemical, colorimetric, single concentration (AID 540281);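 also: plate controls were DMSO with enzyme for no effect and buffer wells lacking enzyme for full effect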", "settings": "recombinant SCP-1 catalytic domain, phosphate release, malachite green absorbance; at 20 µM; hits give high values", "procedure,_shortened": "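Material: SCP-1 enzyme, residues 76-261; Times: 45 min phosphatase reaction at RT; Reagent: Phospho-17-mer peptide substrate; Dosing: single 20 µM final compound concentration, 1.0% DMSO; Medium: Acidic Tris acetate with 10 mM MgCl2 and Tween-20, pH 5.5; Technique: absorbance at 630 nm, free phosphate colorimetry.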", "values": [{"smiles": "Nc1cccc2ccc([As](=O)(O)O)cc12", "inhibition": "active: 45.8%"}]}]}
